According to EP2710378B1, “METHOD TO PROGNOSE VIRAL INFECTION BY MEASURING T CELL RESPONSE OR AUTO-ANTIBODIES TO APOPTOTIC EPITOPES” (Università degli Studi di Roma "La Sapienza", priority 2011, dated 2012):

Test system: HLA-A2
Assay type: binding, Human
[1] = number of the five alleles A*0201, A*0202, A*0203, A*0206, A*6802 bound
[2] = Table 9, peptides derived from not fragmented proteins, number of the five HLA-A2 alleles bound
[3] = Table 11, peptides derived from apoptotic cell-associated proteins, pools 1-4, number of the five HLA-A2 alleles bound
[4] = Table 12, peptides derived from apoptotic cell-associated proteins, pools 5-6, number of the five HLA-A2 alleles bound

Compound | Alleles bound [1] | other results
CC(C)C[C@H](NC(=O)[C@H](C)N)C(=O)N[C@@H](CCCNC(=N)N)C(=O)N[C@H](C(=O)N[C@@H](CC(=O)O)C(=O)N[C@@H](Cc1ccc(O)cc1)C(=O)N[C@@H](CC(N)=O)C(=O)N[C@@H](C)C(=O)N[C@@H](CO)C(=O)N[C@H](C(=O)O)C(C)C)[C@@H](C)O [compound 16] | 4 | 
CC(C)C[C@H](NC(=O)[C@H](CC(=O)O)NC(=O)[C@H](CCC(=O)O)NC(=O)[C@H](CC(C)C)NC(=O)[C@H](CC(=O)O)NC(=O)CNC(=O)[C@H](CCC(=O)O)NC(=O)[C@H](CC(C)C)NC(=O)[C@@H](N)CO)C(=O)O [compound 44] | 1 | 
CC(C)C[C@H](NC(=O)[C@H](CCC(N)=O)NC(=O)[C@H](CCCCN)NC(=O)[C@H](CCCCN)NC(=O)[C@H](C)NC(=O)[C@H](C)NC(=O)[C@H](C)NC(=O)[C@H](CC(C)C)NC(=O)[C@@H](N)CO)C(=O)O [compound 46] | 1 | 
CC[C@H](C)[C@H](NC(=O)[C@H](CCC(=O)O)NC(=O)[C@H](CCC(=O)O)NC(=O)[C@H](CO)NC(=O)[C@H](Cc1ccc(O)cc1)NC(=O)[C@@H](NC(=O)[C@@H]1CCCN1C(=O)[C@H](CC(C)C)NC(=O)[C@@H](N)CC(N)=O)[C@@H](C)CC)C(=O)O [compound 61] | 5 | 
CC[C@H](C)[C@H](NC(=O)[C@H](CCC(N)=O)NC(=O)[C@@H](NC(=O)[C@H](CCCCN)NC(=O)[C@H](CO)NC(=O)CNC(=O)[C@@H](NC(=O)[C@H](CC(C)C)NC(=O)[C@@H](N)CO)[C@@H](C)CC)[C@@H](C)O)C(=O)O [compound 237] |  | Alleles bound [2]: 0
CC[C@H](C)[C@H](NC(=O)[C@H](CC(N)=O)NC(=O)[C@H](CCCCN)NC(=O)CNC(=O)[C@H](CC(N)=O)NC(=O)[C@H](CC(C)C)NC(=O)[C@@H](N)CCC(=O)O)C(=O)N[C@@H](CCC(=O)O)C(=O)N[C@@H](CC(=O)O)C(=O)N[C@H](C(=O)O)C(C)C [compound 243] |  | Alleles bound [2]: 3
KLRNWQWWRL |  | Alleles bound: 2
CC(C)C[C@H](NC(=O)[C@H](CCC(=O)O)NC(=O)[C@H](CC(=O)O)NC(=O)[C@H](CCC(=O)O)NC(=O)[C@H](CC(C)C)NC(=O)[C@H](CCC(=O)O)NC(=O)[C@H](CCC(=O)O)NC(=O)[C@H](CC(C)C)NC(=O)[C@@H](N)CCC(N)=O)C(=O)O [compound 117] |  | Alleles bound: 2
CC(C)C[C@H](NC(=O)[C@H](CC(C)C)NC(=O)[C@H](CCCNC(=N)N)NC(=O)[C@H](C)NC(=O)[C@H](CC(=O)O)NC(=O)[C@H](C)NC(=O)[C@@H](NC(=O)[C@H](CC(C)C)NC(=O)CN)[C@@H](C)O)C(=O)O |  | Alleles bound (number of the five alleles A*0201, A*0202, A*0203, A*0206, A*6802 bound, Table 13): 5
CC[C@H](C)[C@H](NC(=O)[C@@H](N)[C@@H](C)O)C(=O)N[C@@H](Cc1c[nH]c2ccccc12)C(=O)N[C@@H](C)C(=O)N[C@@H](C)C(=O)N[C@@H](CC(N)=O)C(=O)N[C@@H](C)C(=O)NCC(=O)N[C@H](C(=O)O)C(C)C [compound 27] | 5 | 
CC[C@H](C)[C@H](NC(=O)[C@@H](NC(=O)[C@@H](NC(=O)[C@H](Cc1cnc[nH]1)NC(=O)CNC(=O)[C@H](CC(N)=O)NC(=O)[C@H](CO)NC(=O)[C@H](CC(C)C)NC(=O)[C@@H](N)Cc1ccccc1)C(C)C)[C@@H](C)O)C(=O)O [compound 73] | 4 | 
CC(C)C[C@H](NC(=O)[C@H](CC(N)=O)NC(=O)[C@H](CO)NC(=O)[C@H](CC(C)C)NC(=O)[C@H](CCC(N)=O)NC(=O)[C@H](CO)NC(=O)[C@H](CO)NC(=O)[C@H](CC(C)C)NC(=O)[C@@H](N)CO)C(=O)O [compound 29] | 4 | 
CC[C@H](C)[C@H](NC(=O)[C@H](CCCCN)NC(=O)[C@H](CCSC)NC(=O)[C@@H](NC(=O)[C@H](CO)NC(=O)[C@@H]1CCCN1C(=O)[C@H](C)NC(=O)[C@H](CC(C)C)NC(=O)[C@H](C)N)[C@@H](C)O)C(=O)O [compound 2] | 5 | 
CC(C)C[C@H](NC(=O)[C@H](CC(C)C)NC(=O)[C@H](CCCNC(=N)N)NC(=O)[C@H](C)NC(=O)[C@H](CC(=O)O)NC(=O)[C@H](C)NC(=O)[C@@H](NC(=O)[C@H](CC(C)C)NC(=O)CN)[C@@H](C)O)C(=O)O [compound 240] |  | Alleles bound [2]: 5
CC(C)C[C@H](NC(=O)[C@@H](N)C(C)C)C(=O)N[C@@H](CCCCN)C(=O)N[C@@H](CCC(=O)O)C(=O)NCC(=O)N[C@@H](CO)C(=O)N[C@@H](CCC(=O)O)C(=O)N[C@@H](Cc1ccc(O)cc1)C(=O)N[C@@H](CCCNC(=N)N)C(=O)N[C@H](C(=O)O)C(C)C [compound 188] | 4 | 
CC[C@H](C)[C@H](NC(=O)[C@@H](NC(=O)[C@H](CCCCN)NC(=O)[C@H](CCC(=O)O)NC(=O)[C@H](CCC(=O)O)NC(=O)[C@H](C)NC(=O)[C@H](CC(C)C)NC(=O)[C@H](CC(C)C)NC(=O)[C@@H](N)CCC(N)=O)[C@@H](C)O)C(=O)O [compound 171] | 0 | 

Compound | Alleles bound [1] | other results
CC(C)C[C@H](NC(=O)[C@H](C)N)C(=O)N[C@@H](CCCNC(=N)N)C(=O)N[C@H](C(=O)N[C@@H](CC(=O)O)C(=O)N[C@@H](Cc1ccc(O)cc1)C(=O)N[C@@H](CC(N)=O)C(=O)N[C@@H](C)C(=O)N[C@@H](CO)C(=O)N[C@H](C(=O)O)C(C)C)[C@@H](C)O |  | Alleles bound [3]: 4
CC[C@H](C)[C@H](N)C(=O)N[C@@H](CC(C)C)C(=O)N[C@@H](Cc1c[nH]cn1)C(=O)N[C@H](C(=O)N[C@@H](CC(=O)O)C(=O)N[C@@H](CC(N)=O)C(=O)N[C@@H](Cc1c[nH]cn1)C(=O)N[C@H](C(=O)NCC(=O)N[C@H](C(=O)O)[C@@H](C)CC)[C@@H](C)CC)C(C)C [compound 235] |  | Alleles bound: 0
CC(C)C[C@H](NC(=O)[C@H](CCC(=O)O)NC(=O)CNC(=O)[C@H](CCCNC(=N)N)NC(=O)[C@H](CCC(=O)O)NC(=O)[C@H](CC(N)=O)NC(=O)[C@H](CCC(=O)O)NC(=O)[C@H](CC(C)C)NC(=O)[C@@H](N)[C@@H](C)O)C(=O)O [compound 170] | 0 | 
CC[C@H](C)[C@H](NC(=O)[C@H](CC(C)C)NC(=O)[C@H](CO)NC(=O)[C@H](CCC(=O)O)NC(=O)[C@H](CC(=O)O)NC(=O)[C@H](CC(=O)O)NC(=O)[C@H](CCCCN)NC(=O)[C@H](CC(=O)O)NC(=O)[C@H](CCSC)NC(=O)[C@@H](N)CCC(=O)O)C(=O)O [compound 195] |  | Alleles bound (Table 8, peptides derived from fragmented proteins, number of the five HLA-A2 alleles bound): 0
CSCC[C@H](NC(=O)[C@H](CC(C)C)NC(=O)[C@@H](N)CCC(N)=O)C(=O)N[C@@H](C)C(=O)N[C@@H](CCC(=O)O)C(=O)N[C@@H](CCCCN)C(=O)N[C@@H](CC(C)C)C(=O)N[C@@H](CCC(N)=O)C(=O)N[C@@H](CC(C)C)C(=O)O |  | Alleles bound [4]: 3
CC[C@H](C)[C@H](NC(=O)[C@H](CCC(N)=O)NC(=O)[C@H](CCC(=O)O)NC(=O)[C@H](CCCCN)NC(=O)[C@H](Cc1ccc(O)cc1)NC(=O)[C@H](CC(C)C)NC(=O)[C@@H](N)CCC(N)=O)C(=O)N[C@@H](C)C(=O)N[C@@H](CCCCN)C(=O)N[C@@H](CC(C)C)C(=O)O [compound 87] | 4 | 
CC(C)C[C@H](NC(=O)[C@H](CCC(N)=O)NC(=O)[C@H](CCCNC(=N)N)NC(=O)[C@H](CCCCN)NC(=O)[C@H](CC(C)C)NC(=O)[C@H](CCC(N)=O)NC(=O)[C@H](CCCCN)NC(=O)[C@H](CC(C)C)NC(=O)[C@@H](N)CCCNC(=N)N)C(=O)O [compound 176] | 0 | 
CC[C@H](C)[C@H](NC(=O)[C@H](CCCCN)NC(=O)[C@H](CC(C)C)NC(=O)[C@H](CC(=O)O)NC(=O)[C@H](CCCNC(=N)N)NC(=O)[C@H](CCC(=O)O)NC(=O)[C@H](CCC(=O)O)NC(=O)[C@H](CCC(=O)O)NC(=O)[C@H](CC(C)C)NC(=O)[C@@H](N)Cc1c[nH]cn1)C(=O)O [compound 181] | 0 | 
CC(C)C[C@H](NC(=O)[C@H](C)NC(=O)[C@H](CC(=O)O)NC(=O)[C@@H](NC(=O)[C@H](CCC(=O)O)NC(=O)[C@H](CS)NC(=O)[C@@H](NC(=O)[C@H](CC(C)C)NC(=O)[C@@H](N)CO)[C@@H](C)O)C(C)C)C(=O)O [compound 207] |  | Alleles bound: 3
CC(C)C[C@H](NC(=O)[C@H](Cc1cnc[nH]1)NC(=O)[C@H](CCC(=O)O)NC(=O)CNC(=O)[C@H](C)NC(=O)CNC(=O)[C@H](CO)NC(=O)[C@H](CC(C)C)NC(=O)[C@H](CC(C)C)NC(=O)[C@@H](N)Cc1ccc(O)cc1)C(=O)O |  | Alleles bound [4]: 4
CSCC[C@H](NC(=O)[C@@H](N)CCC(=O)O)C(=O)N[C@@H](CC(=O)O)C(=O)N[C@@H](CCCCN)C(=O)N[C@@H](CC(=O)O)C(=O)N[C@@H](CC(=O)O)C(=O)N[C@@H](CCC(=O)O)C(=O)N[C@@H](CO)C(=O)N[C@@H](CC(C)C)C(=O)O [compound 190] | 3 | 
CC[C@H](C)[C@H](NC(=O)[C@H](CCCCN)NC(=O)[C@H](CCSC)NC(=O)[C@@H](NC(=O)[C@H](CO)NC(=O)[C@@H]1CCCN1C(=O)[C@H](C)NC(=O)[C@H](CC(C)C)NC(=O)[C@H](C)N)[C@@H](C)O)C(=O)O |  | Alleles bound [3]: 5
CC[C@H](C)[C@H](NC(=O)[C@H](CCCNC(=N)N)NC(=O)[C@H](Cc1ccc(O)cc1)NC(=O)[C@H](CC(C)C)NC(=O)[C@H](CC(N)=O)NC(=O)[C@H](CO)NC(=O)[C@H](CC(=O)O)NC(=O)[C@H](CC(C)C)NC(=O)[C@@H](N)CCC(=O)O)C(=O)O [compound 134] | 1 | 
CSCC[C@H](NC(=O)[C@@H](N)CCCCN)C(=O)N[C@@H](CC(N)=O)C(=O)N1CCC[C@H]1C(=O)N1CCC[C@H]1C(=O)N[C@@H](CCCCN)C(=O)N[C@@H](Cc1ccccc1)C(=O)N[C@@H](CO)C(=O)N[C@@H](CCCCN)C(=O)N[C@H](C(=O)O)C(C)C [compound 103] |  | Alleles bound: 3
CC(C)C[C@H](NC(=O)[C@H](CC(C)C)NC(=O)[C@H](Cc1ccc(O)cc1)NC(=O)[C@H](CO)NC(=O)[C@H](C)NC(=O)[C@@H](NC(=O)[C@@H](N)Cc1ccc(O)cc1)C(C)C)C(=O)N[C@@H](C)C(=O)N[C@@H](C)C(=O)O [compound 250] |  | Alleles bound [2]: 0
CC(C)C[C@H](NC(=O)[C@@H](N)CC(C)C)C(=O)N[C@@H](Cc1c[nH]cn1)C(=O)N[C@@H](CCC(N)=O)C(=O)N[C@@H](CO)C(=O)N[C@@H](CO)C(=O)N[C@@H](CC(=O)O)C(=O)N[C@@H](CCCCN)C(=O)N[C@@H](Cc1ccccc1)C(=O)N[C@H](C(=O)O)C(C)C [compound 125] | 2 | 

Where two headings read alike, the source gives them in different places.
